Usually IC50 stands for the midpoint of a concentration-inhibition curve.

Amino acid sequences for entries named in this document (tags omitted).
UniProt O43175, whole entry: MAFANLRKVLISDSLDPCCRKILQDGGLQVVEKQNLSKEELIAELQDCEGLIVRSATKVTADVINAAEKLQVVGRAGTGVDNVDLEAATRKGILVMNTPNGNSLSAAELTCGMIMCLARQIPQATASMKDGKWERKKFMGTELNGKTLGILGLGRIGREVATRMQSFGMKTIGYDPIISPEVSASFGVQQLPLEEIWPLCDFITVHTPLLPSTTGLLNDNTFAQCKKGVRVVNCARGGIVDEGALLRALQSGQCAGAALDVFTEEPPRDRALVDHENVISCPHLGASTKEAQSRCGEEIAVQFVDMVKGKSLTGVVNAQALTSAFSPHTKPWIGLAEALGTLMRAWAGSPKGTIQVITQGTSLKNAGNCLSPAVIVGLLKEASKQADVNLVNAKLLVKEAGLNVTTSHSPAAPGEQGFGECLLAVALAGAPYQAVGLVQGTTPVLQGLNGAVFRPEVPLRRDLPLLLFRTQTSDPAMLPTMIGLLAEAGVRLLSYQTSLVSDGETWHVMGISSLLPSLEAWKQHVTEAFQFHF

For the assay, the target named is PHGDH (Homo sapiens (Human), UniProt O43175). The assay can be described thus: PHGDH inhibition, coupled assay with PSAT1/PSPH and diaphorase/resazurin readout. It is filed as biochemical. The settings on record: read-out: PHGDH IC50; Table E9; mixture with PSAT1, PSPH; diaphorase/resazurin reporter.

On to `Cc1cc(C)nc(NC(=S)N2CCN(c3cccc([N+](=O)[O-])c3)CC2)c1`, for which the IC50 lay in the range of 5 to 10 µM.

(Values after patent US11225469B2, “Inhibitors of phosphoglycerate dehydrogenase (PHGDH) and uses thereof” (Whitehead Institute for Biomedical Research, priority 2015, dated 2022).)
